For one molecule, Porosity results are on record in patent US20210161894A1, “Compositions and Methods for Modulating Liver Endothelial Cell Fenestrations” (priority 2017, published 2021).

For the assay, the system named is isolated LSECs (liver sinusoidal endothelial cells). Put plainly: SEM of fenestrations in isolated LSECs from young and old mice after 30 min drug treatment (second Example 7). It is filed as cell-based. Conditions: old mice. The procedure:
3-4 and 18-24 month old male C57/B16 mice were obtained from the Animal Resource Centre in Perth, Western Australia. Animals were housed at the ANZAC Research Institute animal house on a 12 hour light/dark cycle and provided with ad libitum access to food and water. Mice were not fasted prior to euthanasia by a single intraperitoneal injection with 100 mg/kg ketamine and 10 mg/kg xylazine in saline. The study was approved by the Animal Welfare Committee of the Sydney Local Health District and was performed in accordance with the Australian Code of Practice for the care and use of animals for scientific research (AWC 2016/009). All information provided accords with the ARRIVE guidelines.
As described previously (Cogger et al. J e52698, 2015 https://dx.doi.org/10.3791/52698), mouse LSEC isolation was performed by perfusion of the liver with collagenase. Non-parenchymal cells were removed by a two-step Percoll gradient and Kupffer cells were removed by selective adherence to plastic. LSECs (seeded at 0.5×10^6 cells/cm2) were cultured (37° C., 5% CO2) in serum free RPMI-1640 for 3.5 hours before use.
Cells were treated with various agents for 30 minutes to determine effects on fenestrations. All agents were dissolved in serum-free RPMI media. All experiments were performed in triplicate for both young and old mice. […]

With `CCC(C)(C)C(=O)O[C@H]1C[C@@H](C)C=C2C=C[C@H](C)[C@H](CC[C@@H]3C[C@@H](O)CC(=O)O3)[C@H]21` [Simvastatin, simvastatin], the Porosity runs as follows: (0.1 μg/ml) 3.56 ± 1.75%; (1 μg/ml) 3.54 ± 1.86%.
